# Patent US20260053861A1, “CELL COMPOSITIONS AND METHODS OF USING THE SAME” (THE REGENTS OF THE UNIVERSITY OF CALIFORNIA, priority 2022, published 2026)
# Test system: hPSC-SCs
# Conditions: HTS viability of hPSC-SCs in the presence of 30 mM glucose; Prestwick library; Table S4
structure (smiles),measurement,value
C[C@@H](O)[C@H]1C(=O)N2C(C(=O)O)=C(S[C@@H]3CN[C@H](C(=O)N(C)C)C3)[C@H](C)[C@H]12 [Meropenem],z.score.t,−0.3313
